Measurements reported in PubChem BioAssay (NCI).
This is a selection; strong and weak results do not stand in their true shares.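 The test compound was applied at a single concentration to cells in 96-well plates for 48 hours, and percent growth was recorded.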 Calls of active or inactive are those of the source. How the source made its calls: active means growth percent below 10; inactive means the rest.

How the values were obtained:
Experiment in all cases: NCI-60 one-dose screen, 48 h (100 = growth as untreated, 0 = no growth, -100 = all killed)
Conditions in all cases: 10 µM unless noted
NCI-H23 lung = system: NCI-H23 lung
NCI-H226 lung = system: NCI-H226 lung
NCI-H322M lung = system: NCI-H322M lung
HOP-62 NSCLC = system: HOP-62 NSCLC
NCI-H460 lung = system: NCI-H460 lung
NCI-H522 lung = system: NCI-H522 lung
786-0 renal = system: 786-0 renal
COLO 205 colon = system: COLO 205 colon
DU-145 prostate = system: DU-145 prostate
K-562 leukemia = system: K-562 leukemia
MALME-3M melanoma = system: MALME-3M melanoma
MDA-MB-231 breast = system: MDA-MB-231 breast
SF-268 CNS = system: SF-268 CNS
SF-295 CNS = system: SF-295 CNS
SF-539 CNS = system: SF-539 CNS
M14 melanoma = system: M14 melanoma
A549/ATCC NSCLC = system: A549/ATCC NSCLC
RXF 393 renal = system: RXF 393 renal
UACC-257 melanoma = system: UACC-257 melanoma
HOP-92 NSCLC = system: HOP-92 NSCLC

SMILES | growth (NCI-H23 lung) | growth (NCI-H226 lung) | growth (NCI-H322M lung) | growth (HOP-62 NSCLC) | growth (NCI-H460 lung) | growth (NCI-H522 lung) | growth (786-0 renal) | growth (COLO 205 colon) | growth (DU-145 prostate) | growth (K-562 leukemia) | growth (MALME-3M melanoma) | growth (MDA-MB-231 breast) | growth (SF-268 CNS) | growth (SF-295 CNS) | growth (SF-539 CNS) | growth (M14 melanoma) | growth (A549/ATCC NSCLC) | growth (RXF 393 renal) | growth (UACC-257 melanoma) | growth (HOP-92 NSCLC)
O=P(O)(NCCCO)N(CCCl)CCCl | inactive: 90.5% | inactive: 96% | inactive: 85.8% | inactive: 106% | inactive: 73.4% | inactive: 110% | inactive: 91.7% | inactive: 94% | inactive: 118% | inactive: 109% | inactive: 144% | inactive: 101% | inactive: 98% | inactive: 79.9% | inactive: 98.7% | inactive: 100% | – | – | – | –
COc1cccc([As]=O)c1 (stereo not given) | active: -65% | active: -54.4% | active: -91.5% | active: -90.2% | active: -40.7% | – | active: -93.2% | active: -80.3% | active: -76.5% | active: -27.8% | active: -76.2% | active: -94.9% | active: -84.1% | active: -89.3% | active: -99.6% | active: -93.3% | active: -70.4% | active: -91.3% | active: -94.6% | –
O=C(O)Cc1ccc(N(CCCl)CCCl)cc1 | – | – | – | – | – | – | inactive: 107% | – | – | inactive: 109% | inactive: 102% | inactive: 113% | – | – | – | – | – | inactive: 110% | – | –
O=C(O)C(=O)c1ccc(N(CCCl)CCCl)cc1 | inactive: 113% | – | inactive: 104% | inactive: 108% | inactive: 112% | inactive: 88.8% | inactive: 104% | inactive: 116% | inactive: 110% | inactive: 89.9% | inactive: 90.9% | inactive: 107% | inactive: 101% | inactive: 103% | inactive: 97.4% | inactive: 102% | inactive: 104% | inactive: 113% | inactive: 101% | inactive: 101%
O=P1(Nc2ncccn2)OC(CCl)=NC1c1ccc(C2N=C(CCl)OP2(=O)Nc2ncccn2)cc1 (stereo not given) | – | – | – | – | – | – | – | – | – | – | – | – | – | – | – | – | – | inactive: 101% | – | –
COP(=O)(OC)N1CC1c1ccccc1 (stereo not given) | inactive: 93.8% | inactive: 101% | – | inactive: 108% | – | inactive: 108% | inactive: 91.9% | inactive: 116% | inactive: 132% | inactive: 111% | inactive: 122% | inactive: 92.8% | inactive: 118% | inactive: 99.1% | inactive: 114% | inactive: 101% | inactive: 100% | inactive: 106% | inactive: 105% | inactive: 106%
COC(=O)C1(C)COP(=O)(N2CCCCCC2)OC1 (stereo not given) | inactive: 97.7% | inactive: 111% | inactive: 110% | – | inactive: 113% | inactive: 100% | inactive: 104% | inactive: 109% | inactive: 101% | inactive: 85.7% | inactive: 105% | inactive: 112% | inactive: 106% | inactive: 103% | inactive: 110% | inactive: 98.9% | inactive: 104% | inactive: 118% | inactive: 113% | –
Nc1ccc(N(CCCl)CCCl)cc1 | inactive: 59.8% | inactive: 70.8% | inactive: 106% | inactive: 65.4% | inactive: 17.7% | – | inactive: 48% | inactive: 74.7% | inactive: 68% | inactive: 70.7% | inactive: 73.9% | inactive: 87.4% | inactive: 53.5% | inactive: 19.8% | inactive: 37.5% | inactive: 67.1% | inactive: 54.4% | inactive: 75.2% | inactive: 73.4% | –
O=[N+]([O-])c1ccc(CCCCCCc2ccc([N+](=O)[O-])cc2[N+](=O)[O-])c([N+](=O)[O-])c1 | inactive: 90.6% | inactive: 83.3% | inactive: 96.1% | inactive: 116% | inactive: 84.2% | inactive: 109% | – | inactive: 104% | inactive: 91.7% | inactive: 72.8% | inactive: 92.7% | inactive: 87.5% | inactive: 86.6% | inactive: 103% | inactive: 104% | inactive: 90.3% | inactive: 86.7% | inactive: 104% | inactive: 92.3% | –
C/C(N)=N/P(=O)(Oc1ccccc1)Oc1ccccc1 | inactive: 101% | – | inactive: 100% | inactive: 100% | inactive: 112% | inactive: 92.7% | inactive: 93.2% | inactive: 105% | inactive: 107% | inactive: 95.9% | inactive: 90% | inactive: 109% | inactive: 106% | inactive: 111% | inactive: 104% | inactive: 96.3% | inactive: 100% | inactive: 118% | inactive: 95.9% | inactive: 101%
